The source of these data is PubChem BioAssay (NCI).

What all share (experiment): NCI anticancer screen, dose series, 48 h
The test system of assay [1] is HOP-92 NSCLC.
Assay [2] concerns NCI-H226 lung.
Assay [3] has as its system NCI-H23 lung.
In assay [4] the test system is UACC-257 melanoma.

Molecules are shown by their SMILES.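 Assay format: 96-well plates, 48-hour exposure. GI50 marks 50% less growth. TGI: total growth inhibition.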

As to `Cn1cnc(N)c1C(=N)[Se]`, the GI50 in assay [1] was 75.1 µM; in assay [2], 6.12 µM; in assay [3], 2.67 µM; in assay [4], 4.86 µM. In addition, the TGI in assay [1] was greater than 100 µM; in assay [2], greater than 100 µM; in assay [3], 6.53 µM; in assay [4] it was greater than 100 µM.
